Where “and” joins values, the source holds several entries; their conditions need not be identical. Equal entries are not always repeated. The list shows a part of the results, in another mix than the full data. Records with an inconclusive call do not appear. Calls of active or inactive are those of the source. Calls follow the shape of the dose curve; as a rule, active = well fitted inhibition curve with a large enough effect; inconclusive = small, poorly fitted or top-dose-only effect, or another doubt; inactive = no such curve, though single readings can be large or run the other way.
% is scaled to controls: 0 for no effect and ±100 for the full control effect.

By UniProt entry, the sequences of proteins in these tests, tags left out.
UniProt P11473, whole entry: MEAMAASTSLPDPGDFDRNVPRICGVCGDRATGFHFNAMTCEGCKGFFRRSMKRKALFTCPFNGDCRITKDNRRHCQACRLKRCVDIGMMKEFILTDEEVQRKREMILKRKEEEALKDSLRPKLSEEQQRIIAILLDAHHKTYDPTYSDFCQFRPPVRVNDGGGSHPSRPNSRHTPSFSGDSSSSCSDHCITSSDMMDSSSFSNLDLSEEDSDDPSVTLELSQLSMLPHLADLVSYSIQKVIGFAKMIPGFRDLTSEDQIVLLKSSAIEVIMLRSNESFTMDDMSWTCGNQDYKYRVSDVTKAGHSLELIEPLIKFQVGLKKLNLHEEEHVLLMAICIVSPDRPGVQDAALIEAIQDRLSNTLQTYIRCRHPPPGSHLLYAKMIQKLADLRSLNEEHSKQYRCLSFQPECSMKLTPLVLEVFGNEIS

For this assay, the target named is Vitamin D3 receptor (Homo sapiens) (UniProt P11473). The assay can be described thus: Inhibitors of the vitamin D receptor (VDR): qHTS. Particulars: VDR-SRC2-3 peptide fluorescence polarization, 2 h; max response, negative = inhibition: hits give low values. On the technique in general: In qHTS, concentration-response curves come from the screen itself.
In the case of `CCCCOc1ccc(C(=O)NCC2(N3CCCCC3)CCCCC2)cc1OC`, the max response, negative = inhibition was inactive: -26.9%.

Take `CC1CCNP(=O)(N(CCCl)CCCl)O1` (centres undefined): the max response, negative = inhibition is inactive: 4.21%.

Take `CCOC(=O)Nc1ccc([As](=O)(O)O)c(O)c1`: the max response, negative = inhibition is inactive: -2.7%.

On to `O=[N+]([O-])c1ccc(Nc2ccc(Oc3ccc([N+](=O)[O-])cc3[N+](=O)[O-])cc2)c([N+](=O)[O-])c1`, for which the max response, negative = inhibition was inactive: -13.4%.

Take `CP(=O)(Nc1ccccc1Br)Oc1ccccc1` (centres undefined): the max response, negative = inhibition is inactive: -28.7%.

In the case of `COc1ccccc1OP(C)(=O)Nc1ccccc1` (centres undefined), the max response, negative = inhibition is inactive: 10.4%.

As for `O=P(Nc1ccccn1)(c1cccc2ccccc12)c1cccc2ccccc12`, the max response, negative = inhibition is inactive: -6.47%.

Take `CCOC(=O)Nc1cccc([As](=O)(O)O)c1`: the max response, negative = inhibition was inactive: -6.26%.

Take `CP(=S)(Nn1cnnc1)Oc1ccccc1` (centres undefined): the max response, negative = inhibition was inactive: 31.2%.

Consider `O=C(/C=C/c1ccccc1)OC1CN2CCC1CC2` (centres undefined), for which the max response, negative = inhibition is inactive: -0.694%.

As to `CC1=C2N=C(C=C3N=C(C(C)=C4[N-][C@@](C)([C@@H]5N=C1[C@](C)(CCC(=O)NC[C@@H](C)OP(=O)([O-])O[C@H]1[C@@H](O)[C@@H](n6cnc7cc(C)c(C)cc76)O[C@@H]1CO)[C@H]5CC(N)=O)[C@@](C)(CC(N)=O)[C@@H]4CCC(N)=O)[C@@](C)(CC(N)=O)[C@@H]3CCC(N)=O)C(C)(C)[C@@H]2CCC(N)=O.[C-]#N.[Co+3]`, the max response, negative = inhibition was inactive: -3.37%.

Turning to `CN(C)C1(CNC(=O)c2ccc(S(C)(=O)=O)cc2)CCCCC1`, the max response, negative = inhibition is inactive: -0.61%.

Turning to `O=[N+]([O-])c1cc([N+](=O)[O-])c(Nc2nnnn2CCO)c([N+](=O)[O-])c1`, the max response, negative = inhibition was inactive: -3.62%.

In the case of `COc1cc(C2NCCC3(OCCO3)C2(C)C)cc(OC)c1OC.O=[N+]([O-])c1cc([N+](=O)[O-])c(O)c([N+](=O)[O-])c1` (centres undefined), the max response, negative = inhibition is inactive: -23.5%.

Consider `Cc1ccc(C(=O)OC2CN3CCC2CC3)cc1` (centres undefined), for which the max response, negative = inhibition was inactive: -10.8%.

As for `CC1CCC(C(C)C)C(OP(=O)(Nc2ccccn2)c2ccccc2)C1` (centres undefined), the max response, negative = inhibition was inactive: -5.01%.

As for `Cc1nn(-c2ccccc2)c2c1P(=O)(N1CCOCC1)N(C)C(c1ccccc1)=N2` (centres undefined), the max response, negative = inhibition was inactive: -3.41%.

As for `O=[As](O)(c1cccs1)c1cccs1`, the max response, negative = inhibition was inactive: -18.8%.

For the molecule `NS(=O)(=O)c1cccc(NC(=O)COC(=O)C(O)(c2ccccc2)c2ccccc2)c1`, the max response, negative = inhibition was inactive: 7.9%.

In the case of `O=P1(Nc2ccc(Br)cn2)COc2ccccc2OC1`, the max response, negative = inhibition was inactive: -4.24%.

`CCCOc1ccc(NP(C)(=O)Oc2ccc(Cl)cc2)cc1` (centres undefined): the max response, negative = inhibition is inactive: -5.05%.

Take `CP(=O)(Nc1ccc(SC(F)(F)F)cc1)Oc1ccccc1` (centres undefined): the max response, negative = inhibition was inactive: -20.6%.

On to `Nc1cccc([As](=O)(O)c2ccccc2)c1`, for which the max response, negative = inhibition was inactive: -20.3%.

`CN1CCCCC1COC(=O)C1(O)c2ccccc2CCc2ccccc21` (centres undefined): the max response, negative = inhibition is inactive: 3.57%.

On to `O=P1(Nc2ncccn2)COc2ccccc2OC1`, for which the max response, negative = inhibition is inactive: -25%.

Turning to `CC(C)(C)C(=O)NC(Sc1ncccn1)C(Cl)(Cl)Cl` (centres undefined), the max response, negative = inhibition is inactive: -24.7%.

On to `CC(C)N(CCCl)C(C)C`, for which the max response, negative = inhibition was inactive: -5.21%.

As for `Clc1n[nH]nc1-c1nn[nH][15n]1`, the max response, negative = inhibition was inactive: -3.1%.

Consider `CCOP(=O)(Nc1ccc(C)cn1)OCC`, for which the max response, negative = inhibition is inactive: -14.6%.

On to `CN(CCCl)Cc1cc(Cl)c(NC2=NCCN2)c(Cl)c1`, for which the max response, negative = inhibition is inactive: 4.06% and inactive: 2.5%.

Turning to `O=[N+]([O-])c1cc([N+](=O)[O-])c(-n2nnc3ccccc32)c([N+](=O)[O-])c1`, the max response, negative = inhibition is inactive: 16.1%.

`CCOP(=O)(NC(=NC(C)c1ccccc1)NC(C)c1ccccc1)OCC` (centres undefined): the max response, negative = inhibition was inactive: -0.793%.

With `CCC1=CC2Cc3nc4ccc(Cl)cc4c(N)c3C(C1)C2` (centres undefined), the max response, negative = inhibition is inactive: -9.8%.

`O=P1(Nc2ccccn2)COc2ccccc2OC1`: the max response, negative = inhibition was inactive: -1.55%.

With `CC1(CBr)Cn2c(nc3ccccc3c2=O)S1` (centres undefined), the max response, negative = inhibition was inactive: -18.1%.

In the case of `CC(C)/C=N\N=C(\N)N[N+](=O)[O-]`, the max response, negative = inhibition is inactive: 2.2%.

Regarding `COc1ccccc1CNC(=O)COC(=O)C(O)(c1ccccc1)c1ccccc1`, the max response, negative = inhibition was inactive: -20.7%.

On to `O=[N+]([O-])c1cc([N+](=O)[O-])c(-c2cnn(-c3ccccc3)c2)c([N+](=O)[O-])c1`, for which the max response, negative = inhibition is inactive: 10.5%.

For the molecule `Cc1cc(C)cc(OP(C)(=O)Nc2ccc(C)cc2C)c1` (centres undefined), the max response, negative = inhibition is inactive: -2.05%.

`O=[As](O)(c1cccc(O)c1)c1cccc(O)c1`: the max response, negative = inhibition is inactive: -3.87%.

On to `COc1ccccc1OP(C)(=O)Nc1cccc(Br)c1` (centres undefined), for which the max response, negative = inhibition is inactive: 6.55%.

For the molecule `CS(=O)(=O)c1ccc(Cl)c(NC(=O)COC(=O)C(O)(c2ccccc2)c2ccccc2)c1`, the max response, negative = inhibition was inactive: -10.5%.

Consider `O=[As](O)(O)c1cccnc1`, for which the max response, negative = inhibition is inactive: 11%.

Take `COc1cc(C(=O)NCC2(N3CCOCC3)CCCCC2)cc(Cl)c1OC(C)C`: the max response, negative = inhibition is inactive: 6.45%.

With `CN(C(=O)Cc1ccc(Cl)c(Cl)c1)[C@@H]1CC[C@]2(CCCO2)C[C@H]1N1CCCC1`, the max response, negative = inhibition was inactive: 2.08%.

As for `O=C(OC1CN2CCC1CC2)c1ccc(Cl)cc1` (centres undefined), the max response, negative = inhibition is inactive: -5.79%.

Take `CCOP(=O)(Nc1cccc2ccccc12)OCC`: the max response, negative = inhibition is inactive: 0.456%.

With `Cc1ccc(C)c(NP(C)(=O)Oc2ccccc2)c1` (centres undefined), the max response, negative = inhibition is inactive: 0.507%.

As for `CCCOP(=S)(Nc1nc(N)cc(=O)[nH]1)OCCC`, the max response, negative = inhibition was inactive: -4.97%.

These data come from PubChem BioAssay AID504847 (National Center for Advancing Translational Sciences (NCATS), 2011).
